From patent publication US20230201118A1, “PRODRUG COPOLYMERS AND POLYMERIC MICELLES THEREOF FOR THE DELIVERY OF SHORT-CHAIN FATTY ACIDS, THE PROMOTION OF GUT HEALTH, AND THE TREATMENT OF IMMUNE AND/OR INFLAMMATORY CONDITIONS AND FOOD ALLERGY” (The University of Chicago, priority 2021, published 2023) come the findings set out here.

For the series the following is noted: at the block size ratios used.

Consider “poly(2-hydroxypropyl methacrylamide)-b-poly(N-(2-butanoyloxyethyl) methacrylamide) [pHPMA-b-pBMA]”, for which the butyrate by weight was 28%.

Take “poly(methacrylic acid)-b-poly(N-(2-butanoyloxyethyl) methacrylamide) [pMAA-b-pBMA]”: the butyrate by weight came to 28%.
